Tests used:
NaV1.8 = NaV1.8 (Homo sapiens, UniProt Q9Y5Y9); experiment: Whole-cell patch clamp blocking activity against NaV1.8 channel current; settings: read-out: NaV1.8 IC50, CHO cell line stably expressing Nav1.8 (SCN10A: NM_006514)
Method: 1. Test method: patch clamp technique was used to detect the influence of compounds on voltage-gated sodium channel (NaV) 1.1-1.8 subtype current
1) The specific information of the CHO cell line stably expressing the Nav1.8 channel was as follows: SCN10A: NM_006514
2) Cells were cultured in HAM'S/F-12 medium containing 10% fetal bovine serum and 10 μg/mL Blasticidin, 200 μg/mL Hygromycin B and 100 μg/mL Zeocin, culture temperature was 37° C. and the concentration of CO2 was 5%.
5) Patch clamp detection, before the experiment, the cells were separated with 0.25%—trypsin EDTA, inoculated into a 24 well plate with a density of 8*10^3 cells per well (final volume: 500 μL), tetracycline was added thereto, and experimental test was performed on the next day.
1) Extracellular fluid: 140 mM NaCl, 3.5 mM KCl, 2 mM CaCl2, 10 mM HEPES, 1.25 mM NaH2PO4, 1 mM MgCl2, 10 mM Glucose, pH=7.4 (NaOH).
2) Intracellular fluid: 50 mM CsCl, 10 mM NaCl, 10 mM HEPES, 20 mM EGTA, 60 mM CsF, pH=7.2 (CsOH).
The voltage stimulation scheme of whole-cell patch clamp recording of Nav channel current was as follows: first the membrane potential of the cell was clamped at −130 mV, and then the voltage was stepped to −40 mV or −20 mV at 10 mv step intervals for 8 s. […] The peak amplitude of its inward current was measured to determine its half-inactivation voltage.
The cell clamping potential was set at −120 mV. The resting and half-inactivation inhibition of sodium current was measured using double pulse mode. […] The data acquisition was repeated at an interval of 20 s and the current peak was measured at the two test pulses.
When the current of the Nav channel recorded by the whole cell was stable, the drug was administered, after each drug concentration was applied for 5 minutes (or the current was stable), the next concentration would be tested, and multiple concentrations would be tested for each test compound. […] The current detected in each cell in the compound-free external fluid served as its own control group. Multiple cells were detected independently and repeatedly. […]

The chains behind the UniProt entries cited, without tags or fusion partners.
UniProt Q9Y5Y9, whole entry: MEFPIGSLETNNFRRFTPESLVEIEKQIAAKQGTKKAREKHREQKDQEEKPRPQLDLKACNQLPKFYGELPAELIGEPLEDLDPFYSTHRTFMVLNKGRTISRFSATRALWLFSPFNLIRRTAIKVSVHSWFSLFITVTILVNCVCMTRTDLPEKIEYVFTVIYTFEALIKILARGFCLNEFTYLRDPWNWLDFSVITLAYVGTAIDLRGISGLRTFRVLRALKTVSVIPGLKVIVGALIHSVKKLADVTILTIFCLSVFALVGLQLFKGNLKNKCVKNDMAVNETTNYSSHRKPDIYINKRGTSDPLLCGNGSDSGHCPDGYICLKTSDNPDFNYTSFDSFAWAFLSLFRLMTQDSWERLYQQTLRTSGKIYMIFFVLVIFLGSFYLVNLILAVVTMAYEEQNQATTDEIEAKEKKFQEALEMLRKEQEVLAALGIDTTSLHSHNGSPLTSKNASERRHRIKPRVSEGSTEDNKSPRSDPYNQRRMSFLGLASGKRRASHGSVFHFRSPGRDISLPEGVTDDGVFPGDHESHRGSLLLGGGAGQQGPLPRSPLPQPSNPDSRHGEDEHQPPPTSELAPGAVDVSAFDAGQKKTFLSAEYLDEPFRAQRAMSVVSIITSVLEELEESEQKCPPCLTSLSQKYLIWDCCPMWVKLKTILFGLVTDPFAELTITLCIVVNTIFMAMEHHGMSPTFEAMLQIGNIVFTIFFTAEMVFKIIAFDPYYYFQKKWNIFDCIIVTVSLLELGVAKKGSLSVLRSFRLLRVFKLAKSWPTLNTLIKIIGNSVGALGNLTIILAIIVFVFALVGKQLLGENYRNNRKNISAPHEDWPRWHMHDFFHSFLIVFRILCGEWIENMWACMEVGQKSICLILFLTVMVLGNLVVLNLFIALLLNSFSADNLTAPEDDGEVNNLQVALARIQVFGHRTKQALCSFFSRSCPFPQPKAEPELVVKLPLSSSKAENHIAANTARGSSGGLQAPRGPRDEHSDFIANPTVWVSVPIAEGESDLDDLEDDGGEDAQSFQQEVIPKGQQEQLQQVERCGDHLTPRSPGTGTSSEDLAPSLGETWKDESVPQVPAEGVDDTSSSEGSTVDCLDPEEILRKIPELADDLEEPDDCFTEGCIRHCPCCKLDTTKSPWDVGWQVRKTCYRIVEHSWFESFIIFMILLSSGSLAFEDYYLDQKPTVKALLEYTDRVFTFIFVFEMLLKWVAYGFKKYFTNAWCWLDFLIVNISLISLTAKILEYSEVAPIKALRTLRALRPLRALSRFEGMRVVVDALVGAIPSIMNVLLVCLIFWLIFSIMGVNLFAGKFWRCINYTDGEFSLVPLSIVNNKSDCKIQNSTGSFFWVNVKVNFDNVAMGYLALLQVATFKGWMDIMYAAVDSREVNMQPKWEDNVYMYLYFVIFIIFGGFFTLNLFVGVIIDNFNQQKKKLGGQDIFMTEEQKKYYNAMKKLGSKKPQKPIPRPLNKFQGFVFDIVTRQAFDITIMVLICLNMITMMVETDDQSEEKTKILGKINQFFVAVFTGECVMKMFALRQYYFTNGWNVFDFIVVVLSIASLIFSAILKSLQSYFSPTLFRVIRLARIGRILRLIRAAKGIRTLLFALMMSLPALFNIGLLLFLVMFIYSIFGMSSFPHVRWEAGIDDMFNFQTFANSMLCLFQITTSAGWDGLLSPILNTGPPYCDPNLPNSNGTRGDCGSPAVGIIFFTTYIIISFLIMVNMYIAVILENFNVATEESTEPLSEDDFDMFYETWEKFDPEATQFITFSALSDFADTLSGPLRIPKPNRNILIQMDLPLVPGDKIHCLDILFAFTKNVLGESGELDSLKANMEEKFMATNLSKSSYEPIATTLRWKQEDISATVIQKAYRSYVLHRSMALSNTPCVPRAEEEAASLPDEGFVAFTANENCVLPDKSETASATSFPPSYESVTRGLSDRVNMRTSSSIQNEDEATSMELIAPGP

[1] = In vivo pharmacokinetics of rat, single intravenous injection or oral administration by gavage
Method: In this experimental embodiment, the in vivo pharmacokinetics of rat was evaluated by a single intravenous injection or oral administration by gavage.
Experimental methods and conditions: Male Sprague Dawley rats, all animals were fasted overnight, and the test compound was given 1 mg/Kg (intravenous injection, solvent […]) and 10 mg/Kg (administrated by gavage) respectively, 5, 15, 30 min, 1, 2, 4, 6, 8 and 24 hr after administration, blood was collected through the submandibular vein, about 0.20 mL of each sample was collected, heparin sodium was used for anticoagulation, the samples were placed on ice after the collection, then centrifuged within 1 hour to separate the plasma for testing. The blood drug concentration in plasma was detected by liquid-phase tandem mass spectrometry (LC/MS/MS), and the pharmacokinetic parameters were calculated by the measured concentration.

[2] = intravenous administration 1 mg/kg

SMILES | IC50 (NaV1.8) [nM] | AUCinf ([1]; intragastric (gavage) 10 mg/kg) [ng·h/mL] | Cmax ([1]; intragastric (gavage) 10 mg/kg) [ng/mL] | T1/2 ([1]; intragastric (gavage) 10 mg/kg) [h] | F (%) ([1]; intragastric (gavage) 10 mg/kg vs intravenous 1 mg/kg) | AUCinf [1, 2] [ng·h/mL] | CL [1, 2] [mL/min/kg] | T1/2 [1, 2] [h] | VZ [1, 2] [L/kg]
O=C(Nc1ccc[n+]([O-])c1)c1cc(C(F)(F)F)c(Cl)cc1Oc1ccc(OC(F)(F)F)cc1 | 6.7 | 12373.07 | 3543.33 | 1.61 | 51.54 | 2400.69 | 7.61 | 0.67 | 0.44148
O=C(Nc1ccc[n+]([O-])c1)c1c(Oc2ccc(OC(F)(F)F)c(F)c2)ccc(C(F)(F)F)c1F | 3 |  |  |  |  |  |  |  | 
COc1cc(OC(F)(F)F)ccc1Oc1ccc(C(F)(F)F)c(F)c1C(=O)Nc1ccc[n+]([O-])c1 | 1.3 |  |  |  |  |  |  |  | 
